This assay has as its system M579-A2-luc tumour cells. In words: luciferase-based tumour cell viability assay, M579-A2-luc cells with inhibitor and TNF. The note with it: SIK1 and SIK2-knocked down M579-A2-luc cells; TNF 100 ng/mL; titrating doses.

Regarding `Cc1nc(Nc2ncc(C(=O)Nc3c(C)cccc3Cl)s2)cc(N2CCN(CCO)CC2)n1` [Compound A8, N-(2-chloro-6-methylphenyl)-2-((6-(4-(2-hydroxyethyl)piperazin-1-yl)-2-methylpyrimidin-4-yl)amino)thiazole-5-carboxamide, reference compound], the “response of tumour cells to the drug (Luc CTL assay)” value is “still responded to titrating doses of dasatinib”.

Source of the values: patent US20250340886A1, “INTRACELLULAR KINASE ASSOCIATED WITH RESISTANCE AGAINST ANTI-TUMOUR IMMUNE RESPONSES, AND USES THEREOF” (iOmx Therapeutics AG, priority 2017, published 2025).
